Target: T1, CI‐M6P/IGF2R:D1–D15 (Homo sapiens, UniProt P11717)
T1 construct: domains 1–15 (residues AA 41–2304); gp67 signal peptide (X1) (N, cleaved yes); 6‐His‐tag (C); PreScission protease cutting site (C); TwinStrep‐tag (C); made in house; host or cells: Spodoptera frugiperda Sf9 insect cells (baculovirus, pFastBac-1), secreted into the medium
Test: Competitive fluorescence polarization assay (displacement of fluorescent glycopeptide 1)
Assay type: binding
Excerpt: The gene encoding human CI‐M6P/IGF2R domains 1–15 (residues AA 41–2304) fused to an N‐terminal gp67 signal peptide ([…]) and C‐terminal 6‐His‐tag, PreScission protease cutting site, and TwinStrep‐tag in pFastBac‐1 vector was used for bacmid generation in DH10Bac E. coli (Thermo Fisher Scientific). The recombinant bacmid DNA was purified using alkaline extraction and transfected using ExpiFectamine‐Sf (Thermo Fisher Scientific) into Spodoptera frugiperda 9 (Sf9) cells. […] Expression of the recombinant protein was assessed by SDS‐PAGE and Western Blot analysis. […]
We employed a fluorescence polarization (FP) binding assay to assess the binding affinity of the tested compounds for a soluble CI‐M6P/IGF2R ectodomain construct. […] Upon binding to the CI‐M6P/IGF2R protein, the probe's rotation slows, resulting in increased fluorescence polarization. This shift is quantified as anisotropy (or polarization), which reflects the ratio of bound to free probe, enabling binding affinity estimation without phase separation.^[ [26] ^]
In all experiments, the compounds were dissolved in water and serially diluted with water in Echo Qualified 384‐Well PP Source Microplates using a BRAVO pipetting station (Agilent, USA). […] After 30 minutes, fluorescence polarization was measured using a Tecan Spark plate reader (Tecan, Switzerland) with excitation at 485 nm and emission at 535 nm. […]

Substance: mannose‐6‐phosphate [Compound 7, reference compound]
- Potency (relative binding potency) ((IC50 of compound 2 / IC50 of compound) × 100): 3.6%
- IC50 (receptor 300 nM, glycopeptide 1 10 nM, pH 8.0, mean of two independent measurements in triplicate ± S.D.): 13.1 ± 2.8 µM

From publication PMC12284618, “Design of Potent Mannose‐6‐Phosphate Derivatives as Ligands for CI‐M6P/IGF2R Using Fluorescence Polarization Assay” (Chemistry (Weinheim an Der Bergstrasse, Germany), 2025)
